For series [1], the system named is plasma proteins. Description: Plasma protein binding experiment (PPB), D. The following applies: 2 μM, 4 hours dialysis. As for the experimental part: Experimental operation: 995 μL of blank plasma of each genus was taken, 5 μL of working solution of test compound (400 μM) or working solution of warfarin (400 μM) was added, so that the final concentrations of the test compound and warfarin in the plasma sample was 2 μM. The sample was mixed thoroughly. The final concentration of the organic phase DMSO was 0.5%; 50 μL of plasma samples of the test compound and warfarin were pipetted into the sample receiving plate (three parallels), and the corresponding volume of the corresponding blank plasma or buffer was immediately added so that the final volume of each sample well was 100 μL, with a volume ratio of 1:1 for plasma: dialysis buffer, and then 500 μL of stop solution was added to these samples, and these samples would be used as a T0 sample for the recovery and stability determination. […] All samples were analyzed by LC/MS/MS after protein precipitation, and the protein binding rate and recovery rate were calculated by the formula: % Unbound=100*F/T, % Bound=100−% Unbound, % Recovery 100*(F+T) T0 (where F was the peak area ratio of the compound in the dialysate after 4 hours of dialysis; T was the peak area ratio of the compound in the plasma after 4 hours of dialysis, and T0 was the peak area ratio of the compound in the plasma sample at zero time).

Series [2] has as its system HPBMC cells. The series is described as follows: HPBMC experiment: CD69 on anti-human IgM stimulated B cells, flow cytometry. The following applies: read-out: CD69 IC50, B cells isolated from PBMC, 48 hours. On the procedure: • 1) Medium: RPMI Medium 1640+1% P/S+10% FBS • 2) MACS buffer: 2% FBS+1 mM EDTA in DPBS • 3) Staining buffer: DPBS+2% FBS • 1.2 Dilution of Compounds and Anti-Human IgM
The initial concentration of the compound to be tested was […], 3-fold dilution, 9 points, and it was added to a 96 well plate after dilution, 50 μL/ well.
The anti-human IgM was diluted according to Table 2 below, and added to the 96 well plate after dilution, 50 μL/well.
• 1) PBMC was removed from a liquid nitrogen tank, then resuscitated and thawed in a 37° C. water bath; • 2) Using a B cell olation kit, B cells were isolated from PBMC according to the instructions, and their viability and number were calculated using a cell counter.
Table 10 Number and viability of PBMC and B cells • 3) The cells were resuspended with 1640 culture medium to a final concentration of 1 M/mL. • 4) The B cells were spread at 0.1 M/ well (100 μL) into a 96-well flat-bottom plate already containing the compound and anti-IgM. • 5) The plate was incubated in a 37° C. CO2 incubator for 48 hours; […]

A short description of series [3]: Pharmacokinetic evaluation of compounds in mice. The following applies: CD-1 male mice. On the procedure: Experimental purpose: To test the in vivo pharmacokinetic data of compounds in CD-1 mice.
The compound was mixed with the solvent 5% DMSO/5% Solutol/90% H2O, vortexed and sonicated to prepare a 0.5 mg/mL clear solution. CD-1 male mice aged 7 to 10 weeks were selected, and administered the candidate compound solution intravenously. Whole blood was collected for a certain period of time, and plasma was prepared. The drug concentration was analyzed by LC-MS/MS method, and pharmacokinetic parameters were calculated by Phoenix WinNonlin software (Pharsight Company, USA).
The compound was mixed with the solvent 5% DMSO/5% Solutol/90% H2O, vortexed and sonicated to prepare a 0.5 mg/mL clear solution. CD-1 male mice aged 7 to 10 weeks were selected, and administered the candidate compound solution orally. Whole blood was collected for a certain period of time, and plasma was prepared. The drug concentration was analyzed by LC-MS/MS method, and pharmacokinetic parameters were calculated by Phoenix WinNonlin software (Pharsight Company, USA).

Setting [4] is: IV, 1.0 mg/kg (002), 1.2 mg/kg (003B).
The mark [5] stands for this setting: PO, 2.9 mg/kg (002), 2.85 mg/kg (003B).

These results are taken from US20240217973A1, “IMIDAZOPYRIDINE COMPOUNDS AND USE THEREOF” (MEDSHINE DISCOVERY INC., priority 2021, published 2024).

The structures appear in SMILES notation.

For `Nc1nccc2c1n(-c1ccc(Oc3ccccc3)cc1)c(=O)n2C1CCN(C(=O)/C=C/CF)C1` (single isomer, unassigned) [Compound 003B], the “Unbound PPB” value in series [1] was 10.9%. In addition, the IC50 in series [2] came to 2 nM. In addition, in series [3] (setting [4]), the AUC0-inf came to 445 nM·h, the C0 came to 4.24 µM, the Cl came to 79 mL/kg/min and the T1/2 came to 16.2 min. In series [3] (setting [4]), this compound returned a Vd of 0.85 L/kg. In series [3] (setting [5]), this compound gave an AUC0-inf of 602 nM·h, a Cmax of 1000 nM, a F % of 45.1% and a T1/2 of 101 min. Besides, the Tmax in series [3] (setting [5]) stood at 4.98 min.

A word on the IC50: it is the concentration that gives 50% inhibition. In general, Vd refers to a proportionality between amount in the body and measured concentration, not a real space. Higher therefore signals extensive tissue distribution. As a reminder, the Cmax is the maximum level reached in the sampled fluid or tissue. One may read the Tmax as the time from dosing to the highest level.
